The source of these data is US20260297101A1 (AbbVie Inc., priority 2015, published 2026).

In this assay the test system is pediatric subjects with severe atopic dermatitis.

As for `CC[C@@H]1CN(C(=O)NCC(F)(F)F)C[C@@H]1c1cnc2cnc3[nH]ccc3n12` [upadacitinib, (3S,4R)-3-ETHYL-4-(3H-IMIDAZO[1,2-a]PYRROLO[2,3-e]-PYRAZIN-8-YL)-N-(2,2,2-TRIFLUOROETHYL)PYRROLIDINE-1-CARBOXAMIDE], under “Week 12, overall population”, the “mean percent change from baseline of the EASI score” value is listed as −79.8% and the “median percent change from baseline of the EASI score” value is on record as −82.9%. In addition, the “Change in EASI, mean (SD)” value (Week 12, as observed, ITT, enrollment on or after protocol v4.0, N=7) is listed as −26.5 (6.58).
